# Yeast mating assay 2: variants of the scFv Ab-91

Data: MIT Lincoln Laboratory AlphaSeq set, Engelhart et al. 2022, doi:10.1038/s41597-022-01779-4, as distributed in FLAb.

Target peptide (SARS-CoV-2 spike, HR2 region): PDVDLGDISGINAS

Parent scFv Ab-91: VL joined to VH by three GGGGS repeats. Changes lie in the heavy chain CDRs alone.
VL: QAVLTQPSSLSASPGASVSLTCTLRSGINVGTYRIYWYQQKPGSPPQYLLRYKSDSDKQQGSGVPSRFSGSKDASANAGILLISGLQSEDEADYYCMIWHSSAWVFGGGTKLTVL
VH: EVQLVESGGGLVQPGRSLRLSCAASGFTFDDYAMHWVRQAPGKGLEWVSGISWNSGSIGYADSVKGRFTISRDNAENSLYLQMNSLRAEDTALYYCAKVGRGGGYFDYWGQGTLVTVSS

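The parent was found by panning a naive human phage display library on the peptide. Library AAYL51 holds single substitutions and randomly drawn double and triple substitutions in the CDRs. In AlphaSeq, yeast of one mating type display the scFv and yeast of the other type display the target. The frequency of each diploid, read from paired DNA barcodes, reflects how well the two displayed proteins bind. Scores were corrected for input abundance and mapped to Kd with protein pairs of known affinity run in the same pool. Each pool was mated in three replicate cultures.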

The parent's heavy chain CDRs are GFTFDDYAMH, GISWNSGSIGYADSVK, VGRGGGYFDY; each variant's own CDRs replace them letter for letter. Affinities are written as log10 Kd with Kd in nM; a lower number is a better binder. The mean shown is taken over the replicates in which the pair was detected. A pair that was not seen in that replicate is written "n.d."; this usually means weak binding, but a binder can also be missed. For reference, the parent read 1.86 as the reference entry and 0.88 as a member of this library.

{"CDR-H1": "GFTFDDYACH", "CDR-H2": "GISWNSGSIGYADSSK", "CDR-H3": "VGRGGGYFSY", "log10 Kd (nM) by replicate": "n.d. n.d. n.d.", "mean log10 Kd (nM)": "n.d.", "empty controls": "2 of 9 (4.13)"}
{"CDR-H1": "GFTFDDYAMH", "CDR-H2": "GISWNPGSIGYPDSVK", "CDR-H3": "VGRGSGYFDY", "log10 Kd (nM) by replicate": "n.d. n.d. n.d.", "mean log10 Kd (nM)": "n.d.", "empty controls": "1 of 9 (5.66)"}
{"CDR-H1": "GFTFDDYAMH", "CDR-H2": "GISWNCKSIGYADSVK", "CDR-H3": "VGRGGGYCDY", "log10 Kd (nM) by replicate": "4.50 n.d. n.d.", "mean log10 Kd (nM)": "4.50", "empty controls": "2 of 9 (4.61)"}
{"CDR-H1": "GFTFDDYAMH", "CDR-H2": "GISWPSGSIGYADSVK", "CDR-H3": "VDRGAGYFDY", "log10 Kd (nM) by replicate": "n.d. n.d. n.d.", "mean log10 Kd (nM)": "n.d.", "empty controls": "4 of 9 (3.98)"}
{"CDR-H1": "GFTFDDYAMH", "CDR-H2": "GISWNSGSIGYADSVK", "CDR-H3": "VNRGGGYFDY", "log10 Kd (nM) by replicate": "n.d. n.d. n.d.", "mean log10 Kd (nM)": "n.d.", "empty controls": "0 of 9"}
{"CDR-H1": "GFTFDDYAMH", "CDR-H2": "GISWNSGSICYMDSVK", "CDR-H3": "VGRGGGYFDK", "log10 Kd (nM) by replicate": "n.d. n.d. n.d.", "mean log10 Kd (nM)": "n.d.", "empty controls": "0 of 9"}
{"CDR-H1": "GFTFDDYAMH", "CDR-H2": "GMSWNSGSIGYADMVK", "CDR-H3": "VGRGGYYFDY", "log10 Kd (nM) by replicate": "2.53 3.78 3.26", "mean log10 Kd (nM)": "3.19", "empty controls": "3 of 9 (4.30)"}
{"CDR-H1": "GFTFDDYAMH", "CDR-H2": "GISWNSGSIGYADSHK", "CDR-H3": "VGRGSWYFDY", "log10 Kd (nM) by replicate": "4.29 4.91 n.d.", "mean log10 Kd (nM)": "4.60", "empty controls": "2 of 9 (4.72)"}
{"CDR-H1": "GFTFDDYAMH", "CDR-H2": "WISWNSGSIGYADSVE", "CDR-H3": "VGRGGGGFDY", "log10 Kd (nM) by replicate": "5.56 6.52 4.40", "mean log10 Kd (nM)": "5.49", "empty controls": "4 of 9 (4.09)"}
{"CDR-H1": "GFTFDDYYMH", "CDR-H2": "YISWNSGSIGYADSVK", "CDR-H3": "VGRGGGYFDY", "log10 Kd (nM) by replicate": "n.d. n.d. n.d.", "mean log10 Kd (nM)": "n.d.", "empty controls": "0 of 9"}
{"CDR-H1": "GFTFDDYAYH", "CDR-H2": "GISWNSGSIGYADSVK", "CDR-H3": "VGRCGGYFDE", "log10 Kd (nM) by replicate": "4.41 4.92 n.d.", "mean log10 Kd (nM)": "4.66", "empty controls": "4 of 9 (4.56)"}
{"CDR-H1": "GFTFDDYAMH", "CDR-H2": "GISWNSGSIAYADSVK", "CDR-H3": "VMMGGGYFDY", "log10 Kd (nM) by replicate": "3.33 3.66 4.30", "mean log10 Kd (nM)": "3.76", "empty controls": "3 of 9 (4.38)"}
{"CDR-H1": "GFTFDDYAMH", "CDR-H2": "GISWNSGWIGYAVSVK", "CDR-H3": "VGRGFGYFDY", "log10 Kd (nM) by replicate": "n.d. n.d. n.d.", "mean log10 Kd (nM)": "n.d.", "empty controls": "0 of 9"}
{"CDR-H1": "GFTFDDYAMH", "CDR-H2": "MNSWNSGSIGYADSVF", "CDR-H3": "VGRGGGYFDY", "log10 Kd (nM) by replicate": "n.d. n.d. n.d.", "mean log10 Kd (nM)": "n.d.", "empty controls": "0 of 9"}
{"CDR-H1": "GQTFDDVAMH", "CDR-H2": "GISWNSGSIGYADSVD", "CDR-H3": "VGRGGGYFDY", "log10 Kd (nM) by replicate": "3.82 4.08 4.26", "mean log10 Kd (nM)": "4.05", "empty controls": "0 of 9"}
{"CDR-H1": "GFTFDDYAMH", "CDR-H2": "GISRCSGSIGYADSVK", "CDR-H3": "VGRGGGHFDY", "log10 Kd (nM) by replicate": "4.63 5.86 n.d.", "mean log10 Kd (nM)": "5.25", "empty controls": "3 of 9 (4.60)"}
{"CDR-H1": "GFTFDWYAMH", "CDR-H2": "GISWCSGSIGYADSVK", "CDR-H3": "VGWGGGYFDY", "log10 Kd (nM) by replicate": "n.d. n.d. n.d.", "mean log10 Kd (nM)": "n.d.", "empty controls": "1 of 9 (3.63)"}
{"CDR-H1": "GFTFDDYAMH", "CDR-H2": "LISWNKGSIGYVDSVK", "CDR-H3": "VGRGGGYFDY", "log10 Kd (nM) by replicate": "n.d. n.d. n.d.", "mean log10 Kd (nM)": "n.d.", "empty controls": "0 of 9"}
{"CDR-H1": "GFTFDDYAMH", "CDR-H2": "GISWNDGSIGVADSVK", "CDR-H3": "VGRGGGCFDY", "log10 Kd (nM) by replicate": "n.d. n.d. n.d.", "mean log10 Kd (nM)": "n.d.", "empty controls": "2 of 9 (4.87)"}
{"CDR-H1": "GFTFDDYAMV", "CDR-H2": "GISWWSGSIGYADSVK", "CDR-H3": "VGRGGGCFDY", "log10 Kd (nM) by replicate": "5.07 n.d. n.d.", "mean log10 Kd (nM)": "5.07", "empty controls": "2 of 9 (4.63)"}
{"CDR-H1": "GFTFDDYAMH", "CDR-H2": "GISWNSGLIGIADSVK", "CDR-H3": "VGRGGGYFDS", "log10 Kd (nM) by replicate": "n.d. 3.74 3.03", "mean log10 Kd (nM)": "3.38", "empty controls": "1 of 9 (3.77)"}
{"CDR-H1": "GFTFDDYAMH", "CDR-H2": "GISWNSWSIGYYDSVK", "CDR-H3": "VGRMGGYFDY", "log10 Kd (nM) by replicate": "n.d. 3.98 n.d.", "mean log10 Kd (nM)": "3.98", "empty controls": "0 of 9"}
{"CDR-H1": "GFTFDDYAMY", "CDR-H2": "GISWNSGSINYADWVK", "CDR-H3": "VGRGGGYFDY", "log10 Kd (nM) by replicate": "n.d. 4.24 4.25", "mean log10 Kd (nM)": "4.25", "empty controls": "2 of 9 (4.25)"}
{"CDR-H1": "GFTFDDYAMH", "CDR-H2": "GISWNIGSIGYHDSVK", "CDR-H3": "VGRGGGYWDY", "log10 Kd (nM) by replicate": "n.d. n.d. n.d.", "mean log10 Kd (nM)": "n.d.", "empty controls": "0 of 9"}
{"CDR-H1": "GFTFDDYAMH", "CDR-H2": "GCSWNSGSIGYADSVK", "CDR-H3": "DGRGGGYFMY", "log10 Kd (nM) by replicate": "4.98 3.57 3.81", "mean log10 Kd (nM)": "4.12", "empty controls": "1 of 9 (4.55)"}
{"CDR-H1": "GFTFDDYAMH", "CDR-H2": "GISWMSGSIGYAMSVK", "CDR-H3": "VGRGGGYFDY", "log10 Kd (nM) by replicate": "n.d. 4.17 n.d.", "mean log10 Kd (nM)": "4.17", "empty controls": "1 of 9 (3.96)"}
{"CDR-H1": "GFTFDDYAMH", "CDR-H2": "GISWDSGSIGYADSVL", "CDR-H3": "VGRGGTYFDY", "log10 Kd (nM) by replicate": "n.d. 5.08 n.d.", "mean log10 Kd (nM)": "5.08", "empty controls": "3 of 9 (4.20)"}
{"CDR-H1": "GFTFDDYAMH", "CDR-H2": "GCSWNSSSIGYARSVK", "CDR-H3": "VGRGGGYFDY", "log10 Kd (nM) by replicate": "4.08 n.d. n.d.", "mean log10 Kd (nM)": "4.08", "empty controls": "1 of 9 (4.35)"}

Repeated from above, the 2 best binders with a signal in all replicates:

{"CDR-H1": "GFTFDDYAMH", "CDR-H2": "GMSWNSGSIGYADMVK", "CDR-H3": "VGRGGYYFDY", "log10 Kd (nM) by replicate": "2.53 3.78 3.26", "mean log10 Kd (nM)": "3.19", "empty controls": "3 of 9 (4.30)"}
{"CDR-H1": "GFTFDDYAMH", "CDR-H2": "GISWNSGSIAYADSVK", "CDR-H3": "VMMGGGYFDY", "log10 Kd (nM) by replicate": "3.33 3.66 4.30", "mean log10 Kd (nM)": "3.76", "empty controls": "3 of 9 (4.38)"}

Empty control strains, which show no peptide, gave a signal in 21% of pairings with library AAYL51; the median was 4.54 and 95% of these signals were weaker than 3.26. No background was subtracted. The control count says in how many pairings with the empty strains this scFv gave a signal, with their mean in brackets.